Experimental data reported in US20190046478A1, “BIOLOGICAL MARKER FOR IDENTIFYING CANCER PATIENTS FOR TREATMENT WITH A BIGUANIDE” (THE ROYAL INSTITUTION FOR THE ADVANCEMENT OF …, priority 2017, published 2019).

Assays:
[1] = tested on: Eμ-Myc lymphoma cells; details: 48 hours, FIG. 3A
Method: Eμ-Myc cells were cultured on a layer of irradiated Ink4a-null MEF feeder cells in DMEM and IMDM medium (50:50 mix) supplemented with 10% fetal bovine serum (FBS), 20000 U/mL penicillin, 7 mM streptomycin, 2 mM glutamine, and β-mercaptoethanol. Raji cells were cultured in RPMI medium supplemented with 10% FBS, 20000 U/mL penicillin, 7 mM streptomycin, and 2 mM glutamine. Cells were grown at 37° C. in a humidified atmosphere supplemented with 5% (v/v) CO2.
Cells were seeded at a density of 1×10^5 cells/mL in 3.5 cm dishes, and cell counts determined via trypan blue exclusion using a TC20 Automated Cell Counter (Biorad). For viability measurements, cells were stained with Fixable Viability Dye eFluor 780 (eBioscience), and analyzed using a Gallios flow cytometer (Beckman Coulter, Fullerton, Calif.) and FlowJo software (Tree Star, Ashland, Oreg.).

[2] = tested on: Eμ-Myc cells; test: LC-MS analysis of GSH/GSSG, NADP+/NADPH and NAD+/NADH ratios; format: cell-based, mouse; details: 2 hours
Method: Aqueous supernatants were dried by vacuum centrifugation with sample temperature maintained at −4° C. (Labconco, Kansas City Mo., USA). Pellets were subsequently resuspended in 25 μL of H2O as the injection buffer. Chromatographic separation was performed on a Scherzo SM-C18 column 3 μm, 3.0×150 mm (Imtakt Corp, JAPAN). The chromatographic gradient started at 100% mobile phase A (0.2% formic acid in water) with a 2 min hold followed with a 6 min gradient to 80% B (0.2% formic acid in MeOH) at a flow rate of 0.4 mL/min. This was followed by a 5 min hold time at 100% mobile phase B and a subsequent re-equilibration time (6 min) before next injection. […] Analyte ionization was accomplished using ESI in positive ionization mode. […] MS data were acquired in full scan mode mass range: m/z 100-1000; scan time: 1.4 s; data collection: centroid and profile modes. […] For all LC/MS analyses, 1 μL of sample was injected. The column temperature was maintained at 10° C. Data were quantified by integrating the area under the curve of each compound using MassHunter Quant (Agilent Technologies, Santa Clara, Calif., USA). Each metabolite's accurate mass ion was extracted (EIC) using a 10 ppm window. Relative concentrations were determined from external calibration curves.

[3] = 100 μM phenformin or 10 μM Compound 1, FIG. 5C

SMILES: [H]/N=C(/N)N/C(=N/[H])NCCc1ccccc1 [phenformin, reference compound]
- Viability of +17˜92 cells at doses not toxic in control cells [1]: viability of +17˜92 cells was affected
- GSH/GSSG ratio ([2]; 100 μM phenformin or 10 μM Compound 1, FIG. 5B): no significant changes
- NADP+/NADPH ratio in +17˜92 cells [2, 3]: increase their NADP+/NADPH ratio
- NADP+/NADPH ratio in control cells [2, 3]: not control cells
